Laboratory results: paper PMC5665883 (2017)

What was measured:
thrombin = thrombin (Homo sapiens, UniProt P00734); test: Thrombin activity assay (amidolytic activity, S-2238); format: biochemical
human α-thrombin = human α-thrombin (Homo sapiens, UniProt P00734); test: Chromogenic substrate assay, Ki (Dixon); format: biochemical

CC1CNc2c(cccc2S(=O)(=O)N[C@@H](CCCNC(=N)N)C(=O)N2CC[C@@H](C)C[C@@H]2C(=O)O)C1 (some centres unmarked) [Argatroban]
IC50 (thrombin): 120 nM | Ki (human α-thrombin): 25 ± 1.1 nM
